Earlier results on two compounds are cited in US20080009782A1.

Like-named read-outs stand apart in the source and are kept apart here. Only a part of the results on these compounds is given; other tests are left out.

For the series the following is noted: for plasma concentration after simple diffusion: citrate buffer at pH 5.

For the compound `CCC(=O)N(c1ccccc1)C1(COC)CCN(CCc2cccs2)CC1`, the “plasma concentration after simple diffusion” value was “did not produce any detectable plasma concentration”. Besides, where the note is “electrotransport delivery”, the “lag time (time required to achieve peak plasma levels)” value (“lag time” below) is 1.5 h. The “lag time” value (passive transdermal patches) was 14 h.

As to `CCC(=O)N(c1ccccc1)C1CCN(CCc2ccccc2)CC1`, the “plasma concentration after simple diffusion” value is recorded as “did not produce any detectable plasma concentration”. Also, the “lag time” value (electrotransport delivery) is on record as 1.5 h. Besides, the “lag time” value (passive transdermal patches) is listed as 14 h.
